Measured values from ChEMBL document CHEMBL3244164, “Synthesis and analgesic activity of 1,3-dihydro-3-(substituted phenyl)imidazo[4,5-b]pyridin-2-ones and 3-(substituted phenyl)-1,2,3-triazolo[4,5-b]pyridines” (J Med Chem, 1978).

System: Rattus norvegicus
Assay: Analgesic activity in Sprague-Dawley rat brewer's yeast treated foot assessed as response threshold at 32 mg/kg, po

SMILES | Activity
O=C(Cn1c(=O)n(-c2ccc3c(c2)OCO3)c2ncccc21)N1CCOCC1 | < 25 mm
CCN(CC)CCn1c(=O)n(-c2ccc3c(c2)OCO3)c2ncccc21 | < 25 mm
